Broadly, the Kd is the free concentration of one partner at which half of the binding sites on the other are occupied at equilibrium, for simple one-to-one binding.

SMILES strings stand for the structures.

This test addresses S1 protein (or the S1 subunit) of SARS-CoV-2 (Severe acute respiratory syndrome coronavirus 2, UniProt P0DTC2). It counts as binding.

On to `C[C@@H]1O[C@@H](O[C@H]2[C@H](O[C@@H]3O[C@H](CO)[C@H](O)[C@H](O)[C@H]3O)[C@@H](CO)OC(O)[C@@H]2O)[C@@H](O)[C@H](O)[C@@H]1O` (some centres unmarked) [3-fucosyllactose, Galβ1-4(Fucα1-2)Glc], for which, under “judged from the Kd data in Table 7”, the “affinity with the S1 protein (in words)” value is recorded as “relatively strong”. Also, under “microscale thermophoresis, RED-NHS labelled S1 protein, read-out: Dissociation constants (Kd) of the binding of the S1 protein to various sugar chains”, the Kd was 7.1 µM.

Source of the values: patent US20230212210A1 (priority 2020, published 2023).
